Holding throughout (assay): BLI; biotinylated LIR peptide immobilised on streptavidin biosensors (Octet Red 96), ATG8 protein in solution; 25 mM Tris pH 7.5, 150 mM NaCl, 0.5 mM TCEP, 0.1% Tween-20, 1 mg/ml BSA, 25 °C; Kd from response against concentration, Y=Rmax*X/(Kd+X)
(BLI is a label-free optical method that tracks binding on a fibre tip over time.)

Experiment [1] concerns the target PCM1 WT LIR peptide.
The target in experiment [2] is FIP200 T704I LIR peptide.
The target of experiment [3] is PCM1 K1957I LIR peptide.

pKd: −log10 of the molar value.

“LC3B Q26K (from UniProt Q9GZQ8 1-120) (natural protein)” had a negative logarithm of the Kd (pKd) in experiment [1] of 3.45. As to “LC3B (from UniProt Q9GZQ8 1-120) (natural protein)”, the results for the negative-log Kd (pKd) in experiment [2] and in experiment [3] were 4.19 and 4.99, respectively.

Broadly, the pKd is the negative decadic logarithm of the Kd, by convention in mol/L.

The values are drawn from PMC6499816, “Molecular determinants regulating selective binding of autophagy adapters and receptors to ATG8 proteins” (Nature Communications, 2019).
